Test results taken from ChEMBL document CHEMBL5260813, “An overview on the recent developments of 1,2,4-triazine derivatives as anticancer compounds” (Eur J Med Chem, 2017).

Legend:
[1] = molecular target: T1, Tyrosine-protein kinase SYK (Homo sapiens, UniProt P43405); assay: Inhibition of human SYK using 5-Fluo-Ahx-GAPDYENLQELNKK-Amid as substrate in presence of ATP by microfluidic mobility shift assay
[2] = molecular target: T1, Tyrosine-protein kinase SYK; assay: Inhibition of SYK in human Ramos cells assessed as reduction in anti IgM-induced phosphorylation of BLNK by flow cytometry assay; type: cell-based

IC50 [1]: 0.8 nM
IC50 [2]: 14 nM
Compound: Cn1cc2c(Nc3nc(N[C@@H]4CCCC[C@@H]4N)nnc3C(N)=O)cccc2n1
